From ChEMBL document CHEMBL1828562, “Aryl H-phosphonates 17: (N-aryl)phosphoramidates of pyrimidine nucleoside analogues and their synthesis, selected properties, and anti-HIV activity” (J Med Chem, 2011) come the findings set out here.

Data set [1] can be described thus: Chemical stability of the compound in RPMI cell culture media assessed as half life at 2 mM. The following applies: 2000 µM.
Data set [2] is described as follows: Cytotoxicity against human CEM-T4 cells assessed as cell viability at 200 uM after 7 days by MTT assay. In kind it is cell-based. Conditions: cem-t4, 168 h. A general note: Tetrazolium assays rely on reduction of a dye to a coloured formazan, in cell work by metabolically active cells.
Data set [3] can be described thus: Chemical stability of the compound in RPMI cell culture media assessed as compound decomposition by HPLC analysis in presence of human MT4 cells.
Data set [4] can be described thus: Cytotoxicity against human CEM-T4 cells assessed as cell viability at 30 uM after 7 days by MTT assay. Conditions: cem-t4, 168 h. In kind it is cell-based.

The structures appear in SMILES notation.

As for `Cc1cn([C@H]2C[C@H](N=[N+]=[N-])[C@@H](COP(=O)(O)Nc3ccccn3)O2)c(=O)[nH]c1=O`, the t1/2 in data set [1] amounted to 117 h. In addition, in data set [2], the Activity entry is “Non-toxic”. Further, the Stability result in data set [3] is reported as “Stable”.

For `O=c1ccn([C@H]2CC[C@@H](COP(=O)(O)Nc3ccccn3)O2)c(=O)[nH]1`, in data set [1], the t1/2 is 22.1 h. Besides, the Activity result in data set [4] is reported as “Non-toxic”.
